In US12030872B2, “N-heteroaryl indazole derivatives as LRRK2 inhibitors, pharmaceutical compositions, and uses thereof” (Merck Sharp & Dohme LLC, priority 2018, dated 2024) one finds IC50 data, which are given here for 30 molecules.

Protein sequences, listed by entry. Tags and fused reporters are not part of them. Residues count along the entry.
UniProt Q5S007, 970-2527 G2019S: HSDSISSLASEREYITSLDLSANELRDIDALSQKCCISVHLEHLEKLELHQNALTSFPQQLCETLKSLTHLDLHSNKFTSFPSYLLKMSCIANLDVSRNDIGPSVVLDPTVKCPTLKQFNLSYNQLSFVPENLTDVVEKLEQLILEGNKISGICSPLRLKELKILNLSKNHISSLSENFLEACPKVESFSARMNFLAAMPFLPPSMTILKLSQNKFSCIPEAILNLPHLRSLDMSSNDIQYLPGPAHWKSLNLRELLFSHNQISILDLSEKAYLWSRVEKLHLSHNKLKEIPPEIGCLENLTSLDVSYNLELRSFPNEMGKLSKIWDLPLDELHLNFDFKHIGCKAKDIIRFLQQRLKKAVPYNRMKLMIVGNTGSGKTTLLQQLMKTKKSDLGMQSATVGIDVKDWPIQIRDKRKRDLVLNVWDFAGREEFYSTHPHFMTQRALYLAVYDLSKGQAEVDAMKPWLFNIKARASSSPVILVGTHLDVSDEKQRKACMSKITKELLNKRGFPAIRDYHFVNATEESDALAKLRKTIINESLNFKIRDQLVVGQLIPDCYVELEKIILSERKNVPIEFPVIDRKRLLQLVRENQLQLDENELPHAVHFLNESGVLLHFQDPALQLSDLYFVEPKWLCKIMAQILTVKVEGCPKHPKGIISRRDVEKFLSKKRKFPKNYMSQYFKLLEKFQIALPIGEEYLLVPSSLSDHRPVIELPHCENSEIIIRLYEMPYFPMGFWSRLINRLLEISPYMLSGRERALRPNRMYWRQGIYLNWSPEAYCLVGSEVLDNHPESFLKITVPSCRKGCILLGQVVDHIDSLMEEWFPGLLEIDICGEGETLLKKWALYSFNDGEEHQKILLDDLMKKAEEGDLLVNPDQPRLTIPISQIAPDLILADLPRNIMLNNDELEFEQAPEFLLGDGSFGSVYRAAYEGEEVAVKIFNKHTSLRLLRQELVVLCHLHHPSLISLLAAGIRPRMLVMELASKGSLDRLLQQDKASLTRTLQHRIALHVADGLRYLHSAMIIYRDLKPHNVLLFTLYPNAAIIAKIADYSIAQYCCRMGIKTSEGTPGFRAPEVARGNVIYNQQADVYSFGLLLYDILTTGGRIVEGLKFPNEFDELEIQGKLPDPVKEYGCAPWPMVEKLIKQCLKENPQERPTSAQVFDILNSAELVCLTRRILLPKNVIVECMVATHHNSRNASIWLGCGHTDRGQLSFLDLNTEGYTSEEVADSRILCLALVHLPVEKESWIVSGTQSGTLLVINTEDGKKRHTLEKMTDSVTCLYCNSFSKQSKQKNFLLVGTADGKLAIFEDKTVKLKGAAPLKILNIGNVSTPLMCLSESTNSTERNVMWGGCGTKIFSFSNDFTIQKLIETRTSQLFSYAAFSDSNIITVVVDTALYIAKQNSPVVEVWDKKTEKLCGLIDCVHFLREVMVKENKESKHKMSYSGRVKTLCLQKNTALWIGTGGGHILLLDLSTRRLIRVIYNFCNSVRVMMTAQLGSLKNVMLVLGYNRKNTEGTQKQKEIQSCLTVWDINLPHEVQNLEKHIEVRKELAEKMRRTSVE

Where two headings read alike, the source gives them in different places. Some results are limits rather than exact numbers.

This assay has as its target GST-tagged truncated human mutant G2019S LRRK2 (Homo sapiens (Human), UniProt Q5S007, G2019S). The experiment in a line: LRRK2 G2019S Km ATP LanthaScreen Assay. The settings on record: LRRKtide substrate, mean IC50 values.
Setting [1] is: read-out: LRRK2 IC50, G2019S LRRK2, 134 μM ATP (Km ATP).
Where [2] appears, read: LRRK2 IC50, G2019S LRRK2, 134 μM ATP (Km ATP).

As for `CC1(N2CCC(c3cc4c(cnn4-c4cnn(C5(C)CC5)c4)cc3Cl)CC2)COC1` [Example 7.7], under setting [1], the IC50 – broadly, the concentration at which inhibition is half-maximal – came to 11.4 nM.
As to `CNC(=O)n1cc(-n2ncc3cc(Cl)c(C4CCN(C5(C)COC5)CC4)cc32)cn1` [Example 8.1, 4-(5-chloro-6-(1-(3-methyloxetan-3-yl)piperidin-4-yl)-1H-indazol-1-yl)-N-methyl-1H-pyrazole-1-carboxamide], the IC50 under setting [2] worked out at 2.9 nM.
Regarding `CC1(N2CC[C@@H](c3cc4c(cnn4-c4cnn(C56CC(C5)C6)c4)cc3Cl)[C@H](F)C2)COC1` (single isomer, unassigned) [Example 36.2, (R,R or S,S)-1-(1-(bicyclo[1.1.1]pentan-1-yl)-1H-pyrazol-4-yl)-5-chloro-6-(3-fluoro-1-(3-methyloxetan-3-yl)piperidin-4-yl)-1H-indazole], the concentration for half-maximal inhibition (IC50) under setting [1] is less than 0.625 nM.
Regarding `Cc1cnc(-n2ncc3cc(Cl)c(C4CCN(C5(C)COC5)CC4)cc32)o1` [Example 7.6], the IC50 under setting [1] worked out at 5.7 nM.
Turning to `N#Cc1cc2cnn(-c3cnn(C4CC4)c3)c2cc1C1CCN(C2COC2)CC1` [Example 12.2, 1-(1-cyclopropyl-1H-pyrazol-4-yl)-6-(1-(oxetan-3-yl)piperidin-4-yl)-1H-indazole-5-carbonitrile], the IC50 under setting [2] is 0.8 nM.
Turning to `Cn1cc(-n2ncc3cc(Cl)c(C4CCN(C5COC5)CC4)cc32)nn1` [Example 2.11], the IC50 under setting [1] stood at 11.3 nM.
Still for that read-out and setting: the figure for `CC(C)n1cc(-n2ncc3cc(Cl)c(C4CCN(C5(C)COC5)CC4)cc32)cn1` [Example 11.4] is 0.9 nM.
Turning to `Cn1cc(-n2ncc3ccc([C@]4(C#N)CC45CC5)cc32)cn1` [Example 1.1, (S)-1-(1-(1-methyl-1H-pyrazol-4-yl)-1H-indazol-6-yl)spiro[2.2]pentane-1-carbonitrile], under setting [2], the IC50 stood at 14.4 nM.
As to `CC1(N2CCC(c3cc4c(cnn4-c4cnn(C5CC5)c4)cc3Cl)CC2)COC[C@H]1O` (single isomer, unassigned) [Example 41.6, (R,R or S,S)-4-(4-(5-chloro-1-(1-cyclopropyl-1H-pyrazol-4-yl)-1H-indazol-6-yl)piperidin-1-yl)-4-methyltetrahydrofuran-3-ol], the IC50 under setting [1] is less than 0.625 nM.
Take `Clc1cc2cnn(-c3cnn(C4CC4)n3)c2cc1C1CCN(C2COC2)CC1` [Example 3.3, 5-chloro-1-(2-cyclopropyl-2H-1,2,3-triazol-4-yl)-6-(1-(oxetan-3-yl)piperidin-4-yl)-1H-indazole]: under setting [2], the IC50 came out at 9.1 nM.
Regarding `O=S1(=O)CCC(N2CCC(c3cc4c(cnn4-c4cnn(C56CC(C5)C6)c4)cc3Cl)CC2)C1` (racemic) [Example 38.2, (R and S)-3-(4-(1-(1-(bicyclo[1.1.1]pentan-1-yl)-1H-pyrazol-4-yl)-5-chloro-1H-indazol-6-yl)piperidin-1-yl)tetrahydrothiophene 1,1-dioxide], under setting [2], the concentration for half-maximal inhibition (IC50) is less than 0.625 nM.
Same read-out and setting: the figure for `CC1(N2CCC(c3cc4c(cnn4-c4cnn(CC(F)F)c4)cc3Cl)CC2)COC1` [Example 11.1, 5-chloro-1-(1-(2,2-difluoroethyl)-1H-pyrazol-4-yl)-6-(1-(3-methyloxetan-3-yl)piperidin-4-yl)-1H-indazole] is 3.4 nM.
The same measure, in the same setting: the figure for `Cn1cc(-n2ncc3cc(Cl)c(C4CCNCC4)cc32)cn1` [Example 16.1, 5-chloro-1-(1-methyl-1H-pyrazol-4-yl)-6-(piperidin-4-yl)-1H-indazole] is 6.9 nM.
With `COCCN1CCC(c2cc3c(cnn3-c3cnn(C)c3)cc2Cl)CC1` [Example 18.4], the IC50 under setting [1] was 11.3 nM.
In the case of `Clc1cc2cnn(-c3cnn(C4CC4)c3)c2cc1C1CCN(C2COC2)CC1` [Example 2.2, 5-chloro-1-(1-cyclopropyl-1H-pyrazol-4-yl)-6-(1-(oxetan-3-yl)piperidin-4-yl)-1H-indazole], the IC50 under setting [2] was less than 0.625 nM.
On to `Cn1cc(-n2ncc3cc(Cl)c(C4CCN(C5CCOC5)CC4)cc32)cn1` (single isomer, unassigned) [Example 14.2-1, (R or S)-5-chloro-1-(1-methyl-1H-pyrazol-4-yl)-6-(1-(tetrahydrofuran-3-yl)piperidin-4-yl)-1H-indazole], for which the IC50 under setting [2] was determined as 1.2 nM.
In the case of `Cn1cc(-n2ncc3cc(Cl)c(C4CCN(C5(C)CCOC5)CC4)cc32)cn1` (single isomer, unassigned) [Example 15.4-2], the IC50 under setting [1] stood at 3.5 nM.
Take `CCn1cc(-n2ncc3cc(Cl)c(C4CCN(C5COC5)CC4)cc32)cn1` [Example 2.7]: under setting [1], the IC50 is 2.3 nM.
On to `O=C1CCCN1c1nc(-n2ncc3cc(Cl)c(C4CCN(C5COC5)CC4)cc32)cs1` [Example 2.10], for which the IC50 under setting [1] stood at 2.6 nM.
Molecule `Clc1cc2cnn(-c3cnn(-c4ncccn4)c3)c2cc1C1CCN(C2COC2)CC1` [Example 4.2, 5-chloro-6-(1-(oxetan-3-yl)piperidin-4-yl)-1-(1-(pyrimidin-2-yl)-1H-pyrazol-4-yl)-1H-indazole] registered an IC50 under setting [2] of less than 0.625 nM.
The same measure, in the same setting: the figure for `Cc1cc(-n2ncc3cc(Cl)c([C@@H]4CCN(C)C[C@H]4F)cc32)sn1` (single isomer, unassigned) [Example 19.8-1] is 8.3 nM.
As to `Clc1cc2cnn(-c3cnn(C4CCC4)c3)c2cc1C1CCN(C2COC2)CC1` [Example 2.8], under setting [1], the IC50 stood at 0.9 nM.
For `N#CC1(c2ccc3cnn(-c4cnn(C5COC5)c4)c3c2)CC12CC2` (stereo not drawn) [Example 1.3], the IC50 under setting [1] came out at 80.1 nM.
On to `O=S1(=O)CC(N2CCC(c3cc4c(cnn4-c4cnn(C56CC(C5)C6)c4)cc3Cl)C(F)C2)C1` (single isomer, unassigned) [Example 39.3, (R,R or S,S)-3-(4-(1-(1-(bicyclo[1.1.1]pentan-1-yl)-1H-pyrazol-4-yl)-5-chloro-1H-indazol-6-yl)-3-fluoropiperidin-1-yl)thietane 1,1-dioxide], for which, under setting [1], the IC50 is less than 0.625 nM.
Take `C[C@H]1CN(C2(C)COC2)CCC1c1cc2c(cnn2-c2cnn(C)c2)cc1Cl` (single isomer, unassigned) [Example 27.5-1, (R,S or S,R)-5-chloro-6-(3-methyl-1-(3-methyloxetan-3-yl)piperidin-4-yl)-1-(1-methyl-1H-pyrazol-4-yl)-1H-indazole]: the half-maximal inhibitory concentration (IC50) under setting [1] is 10.1 nM.
Consider `CC1(N2CCC(c3cc4c(cnn4-c4cnn(C5CC5)c4)cc3Cl)CC2)CCOC1` (single isomer, unassigned) [Example 15.3-2, (R or S)-5-chloro-1-(1-cyclopropyl-1H-pyrazol-4-yl)-6-(1-(3-methyltetrahydrofuran-3-yl)piperidin-4-yl)-1H-indazole], for which, under setting [2], half-maximal inhibition (IC50) was put at 3.5 nM.
Turning to `Cc1cc2cnn(-c3cnn(C)c3)c2cc1C1CCN(C2COC2)C[C@H]1F` (single isomer, unassigned) [Example 22.1-2, (R,R or S,S)-6-(3-fluoro-1-(oxetan-3-yl)piperidin-4-yl)-5-methyl-1-(1-methyl-1H-pyrazol-4-yl)-1H-indazole], the half-maximal inhibitory concentration (IC50) under setting [1] came to 4.3 nM.
For the molecule `Cc1cc2cnn(-c3cnn(C)c3)c2cc1[C@@H]1CCN(C2(C)COC2)C[C@@H]1C` (mixture of isomers) [Example 24.6, (R,R and S,S)-5-methyl-6-(3-methyl-1-(3-methyloxetan-3-yl)piperidin-4-yl)-1-(1-methyl-1H-pyrazol-4-yl)-1H-indazole], the IC50 under setting [1] is 0.9 nM.
The molecule `Cc1cc2cnn(-c3cnn(C)c3)c2cc1C1CCN(C2COC2)CC1` [Example 6.1, 5-methyl-1-(1-methyl-1H-pyrazol-4-yl)-6-(1-(oxetan-3-yl)piperidin-4-yl)-1H-indazole] showed an IC50 under setting [2] of 1.1 nM.
On to `CC1(N2CCC(c3cc4c(cnn4-c4cnn(CCF)c4)cc3Cl)CC2)COC1` [Example 11.2], for which the IC50 under setting [1] turned out to be 0.9 nM.
